Data on two molecules can be found in PMC3190643 (2011).

Chains of the proteins cited; added tags and fusions are not shown. Residues count along the entry.
UniProt P14780, 107-444 limits assumed: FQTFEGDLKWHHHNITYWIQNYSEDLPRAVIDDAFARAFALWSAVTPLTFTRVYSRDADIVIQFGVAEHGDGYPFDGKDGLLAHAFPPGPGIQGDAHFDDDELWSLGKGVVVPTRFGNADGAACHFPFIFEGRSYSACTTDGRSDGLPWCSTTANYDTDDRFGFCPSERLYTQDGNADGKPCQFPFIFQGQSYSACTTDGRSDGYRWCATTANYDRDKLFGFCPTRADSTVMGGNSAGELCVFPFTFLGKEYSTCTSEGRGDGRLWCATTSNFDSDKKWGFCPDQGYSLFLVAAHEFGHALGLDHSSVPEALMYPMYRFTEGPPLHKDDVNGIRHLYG

SMILES strings stand for the structures.

Experiment [1] concerns the target T1, Human recombinant active MMP-2 (Homo sapiens, UniProt P08253).
T1 sequence (P08253 110-660): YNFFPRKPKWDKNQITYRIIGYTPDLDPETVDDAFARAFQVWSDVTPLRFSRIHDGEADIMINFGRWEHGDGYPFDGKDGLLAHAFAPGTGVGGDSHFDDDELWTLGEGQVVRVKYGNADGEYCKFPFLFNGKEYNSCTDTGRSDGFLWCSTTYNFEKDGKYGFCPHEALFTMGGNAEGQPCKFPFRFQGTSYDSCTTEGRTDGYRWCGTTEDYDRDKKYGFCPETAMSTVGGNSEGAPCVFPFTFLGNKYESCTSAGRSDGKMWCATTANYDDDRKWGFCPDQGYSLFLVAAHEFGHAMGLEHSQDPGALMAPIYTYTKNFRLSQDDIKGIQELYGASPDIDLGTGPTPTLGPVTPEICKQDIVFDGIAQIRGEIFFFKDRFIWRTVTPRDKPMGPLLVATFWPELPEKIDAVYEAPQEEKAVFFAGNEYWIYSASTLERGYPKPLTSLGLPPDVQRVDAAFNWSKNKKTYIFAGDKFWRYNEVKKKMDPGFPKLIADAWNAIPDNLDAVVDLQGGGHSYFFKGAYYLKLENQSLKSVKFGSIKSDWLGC
Conditions: read-out: Ki, MMP-2; koff/kon.

Experiment [2] deals with catalytic domain of human recombinant MMP-9 (Homo sapiens, UniProt P14780). Conditions: read-out: Ki, MMP-9 catalytic domain; koff/kon.
For experiment [3], the target named is catalytic domain of MMP-14 (Homo sapiens, UniProt P50281). Conditions: read-out: Ki, MMP-14 catalytic domain.
In experiment [4] the target is T2, Human recombinant active MMP-7 (Homo sapiens, UniProt P09237).
T2 sequence (P09237 95-267): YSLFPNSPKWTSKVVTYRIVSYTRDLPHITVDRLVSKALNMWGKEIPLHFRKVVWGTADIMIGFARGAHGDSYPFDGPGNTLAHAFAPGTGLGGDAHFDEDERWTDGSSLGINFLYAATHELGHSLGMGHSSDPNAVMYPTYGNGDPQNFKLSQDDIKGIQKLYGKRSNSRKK
Conditions: read-out: Ki, MMP-7; linear competitive.

`N=C(N)NCCC[C@H](NC(=O)[C@@H](N)CCCNC(=N)N)C(=O)Nc1ccc(Oc2ccc(S(=O)(=O)CC3CS3)cc2)cc1` (stereo partly shown) [Compound 5e]: the Ki is 420 ± 150 nM in experiment [1] and 18.7 ± 5.6 µM in experiment [2].

Turning to `N=C(N)NCCC[C@H](N)C(=O)Nc1ccc(Oc2ccc(S(=O)(=O)CC3CS3)cc2)cc1` (stereo partly shown) [Compound 5d], the Ki in experiment [3] stood at 28.9 ± 2.3 µM; in experiment [4], 160 ± 14 µM.
